From patent EP4772502A1, “ARYL OR HETEROARYL SUBSTITUTED CARBAMATE COMPOUND AND DERIVATIVE AND USE THEREOF” (Shenzhen Zhongge Biological Technology Co., Ltd., priority 2023, dated 2025)

Sequences of proteins named here, by UniProt entry; tags and fusion partners are left off.
UniProt Q13131, whole entry: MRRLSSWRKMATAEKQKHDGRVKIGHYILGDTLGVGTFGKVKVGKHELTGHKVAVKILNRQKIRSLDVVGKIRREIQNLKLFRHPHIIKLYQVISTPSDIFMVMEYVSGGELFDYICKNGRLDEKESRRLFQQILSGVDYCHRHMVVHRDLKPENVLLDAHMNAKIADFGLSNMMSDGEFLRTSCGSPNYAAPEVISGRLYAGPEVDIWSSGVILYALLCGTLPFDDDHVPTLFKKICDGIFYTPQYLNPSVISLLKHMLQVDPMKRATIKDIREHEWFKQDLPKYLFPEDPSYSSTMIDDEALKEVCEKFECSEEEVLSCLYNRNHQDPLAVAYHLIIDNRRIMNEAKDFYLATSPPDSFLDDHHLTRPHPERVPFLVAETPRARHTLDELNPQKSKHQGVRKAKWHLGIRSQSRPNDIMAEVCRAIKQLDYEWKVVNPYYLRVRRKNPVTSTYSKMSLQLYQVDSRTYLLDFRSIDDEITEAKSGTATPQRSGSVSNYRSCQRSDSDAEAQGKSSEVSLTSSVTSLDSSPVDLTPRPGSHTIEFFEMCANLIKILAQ
UniProt Q9Y478, whole entry: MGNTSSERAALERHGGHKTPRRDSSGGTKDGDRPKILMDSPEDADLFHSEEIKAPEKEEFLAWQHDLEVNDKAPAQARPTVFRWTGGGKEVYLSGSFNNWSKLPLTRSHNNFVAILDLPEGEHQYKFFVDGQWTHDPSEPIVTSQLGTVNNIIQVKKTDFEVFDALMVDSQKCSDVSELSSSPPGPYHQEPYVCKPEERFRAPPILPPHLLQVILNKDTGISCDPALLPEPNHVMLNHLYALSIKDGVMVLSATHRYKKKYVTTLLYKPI
UniProt P54619, whole entry partner: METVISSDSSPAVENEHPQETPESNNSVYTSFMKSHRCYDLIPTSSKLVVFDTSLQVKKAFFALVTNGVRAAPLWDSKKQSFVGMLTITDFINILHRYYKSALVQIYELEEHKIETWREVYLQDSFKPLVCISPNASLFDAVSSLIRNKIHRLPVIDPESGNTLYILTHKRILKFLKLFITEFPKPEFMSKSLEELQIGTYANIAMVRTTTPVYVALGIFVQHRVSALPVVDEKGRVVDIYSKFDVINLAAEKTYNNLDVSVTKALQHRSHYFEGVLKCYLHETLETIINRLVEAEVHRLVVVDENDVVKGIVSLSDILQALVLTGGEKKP

Target: AMPKα1β1γ1 (Homo sapiens, UniProt Q13131+Q9Y478)
Test: In vitro assay for AMPK (α1β1γ1) enzyme agonist activity (TR-FRET)
Protocol: Test example 1: In vitro assay for AMPK (α1β1γ1) enzyme agonist activity
Test compounds were dissolved in DMSO to prepare 10 mM stock solution, which was then diluted to the predetermined test concentrations using kinase buffer (50 mM HEPES, 1 mM EDTA, 10 mM MgCl2, 0.01% Brij-35, pH = 7.5). Into a 384-well plate were added 5 µL of AMPKα1β1γ1 (CARNA, 02-113), 2.5 µL of the diluted test compound solution, and 2.5 µL of a mixture of […] and ATP, resulting in the following final concentrations: AMPKα1β1γ1 at 1.6 mg/L, […] at 5 nM, and ATP at 0.1 mM. The components were mixed evenly, and reacted at room temperature for 1 h. […] The values of samples in each well were read using a microplate reader in TR-FRET mode (excitation wavelength: 320 nm; emission wavelengths: 665 nm and 615 nm). By comparing the values with those of the blank control group (1% DMSO) and the positive control group (1 µM A769662), the relative activity of AMPKα1β1γ1 at each test compound concentration (4.57 nM, 13.72 nM, 41.15 nM, 123.46 nM, 370.37 nM, 1111.11 nM, 3333.33 nM, and 10000 nM) was calculated, with the activity of 1 µM A769662 set as 100%. The data were analysed in GraphPad Prism 9 using a Dose-response-Stimulation four-parameter regression model to obtain the Top and EC50 values for the test compounds.

- EC50 (AMPKα1β1γ1 1.6 mg/L, ATP 0.1 mM, 1 h room temperature, 4.57 nM-10000 nM): 200 to 500 nM
Compound: O=C(Nc1cc(Cl)c(-c2ccc(C3CCCCO3)cc2)s1)O[C@@H]1CO[C@H]2[C@@H]1OC[C@H]2O (some centres unmarked)
- Top value (%) (activity of 1 µM A769662 set as 100%): C (C indicates the Top value of the test compound's AMPK (α1β1γ1) enzyme agonist activity ≥ 150% and < 200%)
